Assay results as given in patent publication US8597616B2 (priority 2007, dated 2013).

Columns and labels:
[1] = intramuscular (IM) injection, normovolemic swine model, previous studies; cited from earlier work
[2] = Blood levels of 2-PAM-CL after intramuscular injection; conditions: IM drug delivery, unpublished data

C[n+]1ccccc1/C=N/O
time post-injection to peak blood levels [1]: 8 min
time to reach therapeutic levels [1]: about 2 minutes
time to reach therapeutic levels in the systemic circulation [2]: 2 to 3 min
